Assays:
Type in all cases: biochemical
[1] = biological target: S. cerevisiae CTS1 (ScCTS1) (Saccharomyces cerevisiae, UniProt P29029); assay: Counter screening assay against ScCTS1; conditions: for IC50: read-out: GH18 family chitinase IC50, plant-type, ScCTS1
[2] = biological target: Homo sapiens chitinase 1/chitotriosidase (HsCHT) (Homo sapiens, UniProt Q13231); assay: Counter screening assay against HsCHT; conditions: for IC50: read-out: GH18 family chitinase IC50, bacterial-type, HsCHT, substrate 4MU-NAG2
Experimental: Counter screening assays to determine an IC50 against other GH18 family chitinases included S. cerevisiae CTS1 (ScCTS1, model plant-type chitinase) and three bacterial-type chitinases (A. fumigatus chitinase B1 [AfChiB], acidic mammalian chitinase [AMCase] and Homo sapiens chitinase 1/chitotriosidase [HsCHT]). Assays were performed as per AfChiA1 with the following modifications, [29]. Bacterial-type chitinases (AfChiB, AMCase and HsCHT) utilised 4-methylumbelliferyl β-D-N-N-diacetylchitobioside (4MU-NAG2) as a substrate and for these pentoxifylline (Sigma) was used as a control inhibitor [30]. Substrate concentrations for IC50 determinations were selected according to the published Km values for each enzyme, [29], [31], [32]. The mode of inhibition was established by Lineweaver–Burk plots of steady-state kinetics with 50 μM to 1 mM of 4MU-GlcNAc3 in the presence of different concentrations of selected compounds [23].

Protein sequences, listed by entry. Tags and fused reporters are not part of them. Residues count along the entry.
UniProt P29029, 21-562 limits assumed: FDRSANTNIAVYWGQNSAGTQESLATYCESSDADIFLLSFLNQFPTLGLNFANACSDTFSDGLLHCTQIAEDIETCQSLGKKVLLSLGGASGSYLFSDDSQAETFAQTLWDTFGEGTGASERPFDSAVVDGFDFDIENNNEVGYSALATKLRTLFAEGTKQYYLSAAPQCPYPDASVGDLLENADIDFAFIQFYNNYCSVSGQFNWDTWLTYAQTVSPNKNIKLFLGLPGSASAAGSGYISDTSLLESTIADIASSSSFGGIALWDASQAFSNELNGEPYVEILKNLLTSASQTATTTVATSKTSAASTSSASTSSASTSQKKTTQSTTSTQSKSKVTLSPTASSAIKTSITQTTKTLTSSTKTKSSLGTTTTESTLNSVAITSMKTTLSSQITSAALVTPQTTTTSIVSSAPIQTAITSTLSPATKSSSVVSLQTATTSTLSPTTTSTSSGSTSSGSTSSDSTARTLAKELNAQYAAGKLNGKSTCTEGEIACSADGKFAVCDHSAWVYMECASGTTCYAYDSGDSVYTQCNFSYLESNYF
UniProt Q13231, 22-466 limits assumed: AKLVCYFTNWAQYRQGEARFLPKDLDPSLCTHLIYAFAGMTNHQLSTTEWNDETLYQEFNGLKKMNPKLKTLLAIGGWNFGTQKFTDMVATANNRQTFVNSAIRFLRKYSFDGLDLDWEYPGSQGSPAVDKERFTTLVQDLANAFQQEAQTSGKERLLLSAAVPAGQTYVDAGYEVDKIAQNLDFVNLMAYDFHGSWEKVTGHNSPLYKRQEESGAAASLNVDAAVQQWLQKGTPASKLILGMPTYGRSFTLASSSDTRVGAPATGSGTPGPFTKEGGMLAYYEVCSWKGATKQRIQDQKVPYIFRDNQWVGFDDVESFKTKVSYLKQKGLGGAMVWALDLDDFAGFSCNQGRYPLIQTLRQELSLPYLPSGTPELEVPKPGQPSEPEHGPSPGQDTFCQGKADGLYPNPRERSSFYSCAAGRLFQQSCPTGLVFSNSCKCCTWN
UniProt Q9BZP6, 22-476 limits assumed: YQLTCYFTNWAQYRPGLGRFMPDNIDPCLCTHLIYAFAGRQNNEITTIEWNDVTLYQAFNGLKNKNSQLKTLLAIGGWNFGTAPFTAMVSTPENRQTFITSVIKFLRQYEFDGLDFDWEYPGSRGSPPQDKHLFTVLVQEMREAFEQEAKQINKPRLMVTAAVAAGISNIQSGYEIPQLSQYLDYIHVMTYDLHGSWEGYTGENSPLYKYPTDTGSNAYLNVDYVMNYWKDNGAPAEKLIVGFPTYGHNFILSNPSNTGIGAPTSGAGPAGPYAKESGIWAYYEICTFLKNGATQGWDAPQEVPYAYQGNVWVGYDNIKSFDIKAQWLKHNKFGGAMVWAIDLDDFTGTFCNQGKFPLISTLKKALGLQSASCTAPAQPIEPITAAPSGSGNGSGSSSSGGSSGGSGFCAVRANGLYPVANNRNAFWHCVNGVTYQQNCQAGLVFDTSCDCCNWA

[3] = biological target: acidic mammalian chitinase (AMCase) (Homo sapiens, UniProt Q9BZP6); assay: Counter screening assay against AMCase; conditions: read-out: GH18 family chitinase IC50, bacterial-type, AMCase; substrate 4MU-NAG2

| SMILES | IC50 [1] [µM] | IC50 [2] [µM] | IC50 [3] [µM] | activity against HsCHT [2] | fold greater potency against ScCTS1 compared to AfChiA1 [1] [fold] |
| --- | --- | --- | --- | --- | --- |
| NC1=C(c2nc3ccccc3[nH]2)C(=O)CN1CCc1ccccc1 | > 100 | – | – | – | – |
| Cc1nc2scc(-c3ccccc3)c2c(=O)[nH]1 | 16.1 | > 100 | 13.6 | – | – |
| Cc1nn(C)cc1C(=O)Nc1ccc(Cl)cc1 | > 100 | – | – | – | – |
| Cc1c(C(=O)N2CCN(CCc3ccccc3)CC2)oc2ccccc12 | 63 | > 100 | > 100 | – | – |
| COc1ccccc1-c1noc2nc(C)[nH]c(=O)c12 | – | – | 9.8 | no activity | 5 |
| CSc1ccc(C2C(C#N)=C(N)Oc3nc(C)[nH]c(=O)c32)cc1 (stereo not shown) | > 100 | – | – | – | – |
| CCc1nnc(NC(=O)c2sc3nccc(COC)c3c2N)s1 | > 100 | – | – | – | – |

Reference: PMC4158421, “Screening-based discovery of Aspergillus fumigatus plant-type chitinase inhibitors” (Febs Letters, 2014)
